Literature values as cited in patent publication US8206772B2, “Structured lipid compositions and methods of formulation thereof” (Kraft Foods Global Brands LLC, priority 2007, dated 2012).

Settings: rats, 5 percent and 10 percent of the diet

## tripropionin
  nutritional value / toxicity when fed: toxic
